In ChEMBL document CHEMBL4619720, “Synthesis and biological evaluation of new antioxidant and antiproliferative chalcogenobiotin derivatives for bladder carcinoma treatment” (Bioorg Med Chem, 2020):

Tests used:
[1] = tested on: 5637; test: Antiproliferative activity against human 5637 cells assessed as inhibition of cell growth after 48 hrs by MTT assay; type: functional, cell-based
[2] = tested on: 5637; test: Antiproliferative activity against human 5637 cells assessed as inhibition of cell growth after 24 hrs by MTT assay; type: functional, cell-based

| Compound | inhibition [1] | inhibition [2] |
| --- | --- | --- |
| O=C1N[C@H]2[C@H](CS[C@H]2CCCCC(=O)OCCCCC[Te]c2ccccc2)N1 | Dose-dependent effect | Dose-dependent effect |
| O=C1N[C@H]2[C@H](CS[C@H]2CCCCC(=O)OCCCC[Te]c2ccccc2)N1 | Dose-dependent effect | Dose-dependent effect |
